This is an account of results in patent US4490363A, “Metorphamide--a novel morphine-like peptide” (Board of Trustees of The Leland Stanford Junior University …, priority 1983, dated 1984).

Amino acid sequences for entries named in this document (tags omitted). A change or cut given only in a name is not applied to a line headed by its entry.
UniProt P41144: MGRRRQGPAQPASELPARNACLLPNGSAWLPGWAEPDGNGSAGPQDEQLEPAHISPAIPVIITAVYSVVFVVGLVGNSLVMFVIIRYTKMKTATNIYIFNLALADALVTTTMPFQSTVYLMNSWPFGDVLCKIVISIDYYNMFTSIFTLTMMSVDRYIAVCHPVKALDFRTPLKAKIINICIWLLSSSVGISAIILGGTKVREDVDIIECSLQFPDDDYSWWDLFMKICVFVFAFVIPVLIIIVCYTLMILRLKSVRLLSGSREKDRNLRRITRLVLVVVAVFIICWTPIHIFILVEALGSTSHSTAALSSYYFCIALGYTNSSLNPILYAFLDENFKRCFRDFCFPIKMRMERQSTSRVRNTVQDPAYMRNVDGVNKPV

The target of this test is T1, κ-site (Cavia porcellus, UniProt P41144).
T1 construct: The assays used homogenates of guinea-pig brain; from tissue; host or cells: guinea pig brain homogenate
Briefly: Binding assay in guinea pig brain homogenates, [3H]-(-)-bremazocine after suppression of μ- and δ-binding.

With `CSCC[C@H](NC(=O)[C@H](Cc1ccccc1)NC(=O)CNC(=O)CNC(=O)[C@@H](N)Cc1ccc(O)cc1)C(=O)N[C@@H](CCCNC(=N)N)C(=O)O` [B, [Met^5]enkephalylArg], the Ki is 544 ± 22 nM.
